Experimental data published in ChEMBL document CHEMBL6127039, “An update on small molecule compounds targeting synthetic lethality for cancer therapy” (Eur J Med Chem, 2024).

Protein sequences, listed by entry. Tags and fused reporters are not part of them. Lines headed by an entry give the natural chain unless they say otherwise; changes in a name come on top.
UniProt P54132: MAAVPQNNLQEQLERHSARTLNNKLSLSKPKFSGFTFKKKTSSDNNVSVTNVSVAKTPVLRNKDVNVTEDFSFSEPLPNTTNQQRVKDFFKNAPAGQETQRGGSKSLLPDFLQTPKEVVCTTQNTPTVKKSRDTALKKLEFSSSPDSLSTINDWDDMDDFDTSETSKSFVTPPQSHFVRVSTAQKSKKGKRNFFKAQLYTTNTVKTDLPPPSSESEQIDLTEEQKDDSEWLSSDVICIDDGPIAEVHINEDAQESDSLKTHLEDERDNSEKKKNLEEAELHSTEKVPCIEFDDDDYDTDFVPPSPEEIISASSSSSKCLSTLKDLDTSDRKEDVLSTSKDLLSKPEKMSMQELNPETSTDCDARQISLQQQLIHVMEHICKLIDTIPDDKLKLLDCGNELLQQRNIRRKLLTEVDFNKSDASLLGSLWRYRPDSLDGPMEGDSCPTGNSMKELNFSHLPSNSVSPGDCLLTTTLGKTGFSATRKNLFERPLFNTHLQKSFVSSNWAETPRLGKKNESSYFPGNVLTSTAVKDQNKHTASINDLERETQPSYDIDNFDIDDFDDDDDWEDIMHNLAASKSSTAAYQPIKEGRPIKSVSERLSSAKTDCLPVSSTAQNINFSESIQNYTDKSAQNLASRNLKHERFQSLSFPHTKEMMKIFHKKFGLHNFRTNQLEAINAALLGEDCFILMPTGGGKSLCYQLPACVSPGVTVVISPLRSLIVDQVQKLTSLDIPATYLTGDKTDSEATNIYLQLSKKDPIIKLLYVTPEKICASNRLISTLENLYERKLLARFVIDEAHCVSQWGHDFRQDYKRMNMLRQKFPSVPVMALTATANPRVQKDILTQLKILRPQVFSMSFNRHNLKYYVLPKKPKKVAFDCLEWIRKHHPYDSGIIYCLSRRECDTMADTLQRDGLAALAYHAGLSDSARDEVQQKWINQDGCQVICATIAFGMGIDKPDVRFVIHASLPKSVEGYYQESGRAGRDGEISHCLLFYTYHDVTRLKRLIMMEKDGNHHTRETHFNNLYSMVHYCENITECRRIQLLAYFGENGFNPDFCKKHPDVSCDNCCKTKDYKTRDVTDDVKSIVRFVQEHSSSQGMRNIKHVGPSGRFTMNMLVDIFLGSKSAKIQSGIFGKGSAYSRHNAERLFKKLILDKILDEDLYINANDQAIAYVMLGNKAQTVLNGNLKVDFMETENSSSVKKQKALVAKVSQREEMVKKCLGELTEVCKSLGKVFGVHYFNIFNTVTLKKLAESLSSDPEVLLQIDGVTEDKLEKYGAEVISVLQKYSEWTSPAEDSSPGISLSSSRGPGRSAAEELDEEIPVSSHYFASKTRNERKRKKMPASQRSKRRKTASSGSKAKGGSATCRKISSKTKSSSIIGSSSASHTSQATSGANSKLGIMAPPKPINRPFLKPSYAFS

Target: RecQ-like DNA helicase BLM (Homo sapiens, UniProt P54132)
Test: Inhibition of BLM (unknown origin)

Question: Which IC50 does the source give for O=C(Nc1ccc(F)c(C(F)(F)F)c1)Nc1nnc(-c2ccncc2)s1 here?
Answer: Its IC50 is 5 µM.
